# Permeability data for macrocyclic peptides

Collected by the curators of CycPeptMPDB (Li et al. 2023) from Kelly et al. 2021, doi:10.1021/jacs.0c06115.

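Conditions beyond the assay type are not listed; see the original paper. Other peptides of the study may be missing here. Entries at the database's floor value (log10 P of -10) are not listed.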

PAMPA is the parallel artificial membrane permeability assay, which has no cells and reads passive diffusion.
Permeability is in 10^-6 cm/s, converted from the database's log10 values; higher is more permeable.

PAMPA (10^-6 cm/s),structure (SMILES)
3.1,CC(=O)N1CCC[C@H]1C(=O)N(C)[C@@H](CC(C)C)C(=O)N[C@@H]1C(=O)N(C)[C@@H](CC(C)C)C(=O)N(C)[C@@H](CC(C)C)C(=O)N(C)[C@H](CC(C)C)C(=O)N(C)[C@@H](C)C(=O)N[C@@H](CC(C)C)C(=O)N2CCC[C@@H]2C(=O)O[C@@H]1C
1.2,CC(=O)N1CCC[C@H]1C(=O)N[C@@H]1C(=O)N[C@H](CC(C)C)C(=O)N[C@H](CC(C)C)C(=O)N[C@H](CC(C)C)C(=O)N(C)[C@@H](CC(C)C)C(=O)N(C)[C@@H](C)C(=O)N[C@@H](CC(C)C)C(=O)N2CCC[C@@H]2C(=O)O[C@@H]1C
2.8,CC(=O)N1CCC[C@H]1C(=O)N(C)[C@H](CC(C)C)C(=O)N[C@@H]1C(=O)N[C@H](CC(C)C)C(=O)N[C@H](CC(C)C)C(=O)N(C)[C@@H](CC(C)C)C(=O)N(C)[C@@H](C)C(=O)N[C@@H](CC(C)C)C(=O)N2CCC[C@H]2C(=O)O[C@@H]1C
3.2,CC(=O)N1CCC[C@@H]1C(=O)N(C)[C@H](CC(C)C)C(=O)N[C@@H]1C(=O)N(C)[C@@H](CC(C)C)C(=O)N(C)[C@H](CC(C)C)C(=O)N(C)[C@@H](CC(C)C)C(=O)N(C)[C@H](C)C(=O)N[C@H](CC(C)C)C(=O)N2CCC[C@H]2C(=O)O[C@@H]1C
3,CC(=O)N1CCC[C@@H]1C(=O)N(C)[C@@H](CC(C)C)C(=O)N[C@@H]1C(=O)N(C)[C@@H](CC(C)C)C(=O)N(C)[C@@H](CC(C)C)C(=O)N(C)[C@H](CC(C)C)C(=O)N(C)[C@@H](C)C(=O)N[C@@H](CC(C)C)C(=O)N2CCC[C@H]2C(=O)O[C@@H]1C
2.4,CC(=O)N1CCC[C@@H]1C(=O)N(C)[C@H](CC(C)C)C(=O)N[C@@H]1C(=O)N[C@H](CC(C)C)C(=O)N(C)[C@H](CC(C)C)C(=O)N(C)[C@H](CC(C)C)C(=O)N[C@H](C)C(=O)N[C@@H](CC(C)C)C(=O)N2CCC[C@H]2C(=O)O[C@@H]1C
0.17,CC(=O)N[C@@H]1C(=O)N2CCC[C@H]2C(=O)N(C)[C@H](CC(C)C)C(=O)N[C@H](CC(C)C)C(=O)N[C@H](CC(C)C)C(=O)N[C@@H](CC(C)C)C(=O)N(C)[C@@H](C)C(=O)N[C@@H](CC(C)C)C(=O)N2CCC[C@@H]2C(=O)O[C@@H]1C
3.6,CC(=O)N1CCC[C@@H]1C(=O)N(C)[C@@H](CC(C)C)C(=O)N[C@@H]1C(=O)N(C)[C@@H](CC(C)C)C(=O)N[C@H](CC(C)C)C(=O)N(C)[C@H](CC(C)C)C(=O)N(C)[C@@H](C)C(=O)N[C@@H](CC(C)C)C(=O)N2CCC[C@@H]2C(=O)O[C@@H]1C
0.34,CC(=O)N1CCC[C@H]1C(=O)N(C)[C@H](CC(C)C)C(=O)N[C@@H]1C(=O)N[C@H](CC(C)C)C(=O)N[C@H](CC(C)C)C(=O)N(C)[C@H](CC(C)C)C(=O)N[C@H](C)C(=O)N[C@H](CC(C)C)C(=O)N2CCC[C@@H]2C(=O)O[C@@H]1C
0.98,CC(=O)N1CCC[C@@H]1C(=O)N(C)[C@H](CC(C)C)C(=O)N[C@@H]1C(=O)N[C@H](CC(C)C)C(=O)N[C@@H](CC(C)C)C(=O)N(C)[C@H](CC(C)C)C(=O)N[C@H](C)C(=O)N[C@H](CC(C)C)C(=O)N2CCC[C@H]2C(=O)O[C@@H]1C
0.21,CC(=O)N1CCC[C@H]1C(=O)N(C)[C@H](CC(C)C)C(=O)N[C@@H]1C(=O)N[C@H](CC(C)C)C(=O)N[C@@H](CC(C)C)C(=O)N[C@@H](CC(C)C)C(=O)N[C@@H](C)C(=O)N[C@H](CC(C)C)C(=O)N2CCC[C@@H]2C(=O)O[C@@H]1C
3.3,CC(=O)N1CCC[C@H]1C(=O)N(C)[C@@H](CC(C)C)C(=O)N[C@@H]1C(=O)N[C@H](CC(C)C)C(=O)N(C)[C@@H](CC(C)C)C(=O)N[C@H](CC(C)C)C(=O)N(C)[C@H](C)C(=O)N[C@@H](CC(C)C)C(=O)N2CCC[C@H]2C(=O)O[C@@H]1C
4.3,CC(=O)N1CCC[C@@H]1C(=O)N(C)[C@@H](CC(C)C)C(=O)N[C@@H]1C(=O)N[C@H](CC(C)C)C(=O)N[C@@H](CC(C)C)C(=O)N(C)[C@H](CC(C)C)C(=O)N(C)[C@@H](C)C(=O)N[C@H](CC(C)C)C(=O)N2CCC[C@H]2C(=O)O[C@@H]1C
1.6,CC(=O)N1CCC[C@@H]1C(=O)N(C)[C@@H](CC(C)C)C(=O)N[C@@H]1C(=O)N(C)[C@H](CC(C)C)C(=O)N(C)[C@@H](CC(C)C)C(=O)N[C@@H](CC(C)C)C(=O)N(C)[C@@H](C)C(=O)N[C@@H](CC(C)C)C(=O)N2CCC[C@H]2C(=O)O[C@@H]1C
0.24,CC(=O)N1CCC[C@H]1C(=O)N[C@@H]1C(=O)N(C)[C@H](CC(C)C)C(=O)N[C@H](CC(C)C)C(=O)N[C@H](CC(C)C)C(=O)N(C)[C@H](CC(C)C)C(=O)N[C@@H](C)C(=O)N[C@@H](CC(C)C)C(=O)N2CCC[C@@H]2C(=O)O[C@@H]1C
0.87,CC(=O)N1CCC[C@H]1C(=O)N(C)[C@@H](CC(C)C)C(=O)N[C@@H]1C(=O)N[C@H](CC(C)C)C(=O)N[C@H](CC(C)C)C(=O)N[C@H](CC(C)C)C(=O)N(C)[C@@H](C)C(=O)N[C@@H](CC(C)C)C(=O)N2CCC[C@H]2C(=O)O[C@@H]1C
0.59,CC(=O)N1CCC[C@H]1C(=O)N(C)[C@H](CC(C)C)C(=O)N[C@@H]1C(=O)N(C)[C@@H](CC(C)C)C(=O)N[C@@H](CC(C)C)C(=O)N[C@@H](CC(C)C)C(=O)N(C)[C@@H](C)C(=O)N[C@@H](CC(C)C)C(=O)N2CCC[C@@H]2C(=O)O[C@@H]1C
4,CC(=O)N1CCC[C@H]1C(=O)N(C)[C@@H](CC(C)C)C(=O)N[C@@H]1C(=O)N(C)[C@@H](CC(C)C)C(=O)N[C@H](CC(C)C)C(=O)N(C)[C@@H](CC(C)C)C(=O)N(C)[C@H](C)C(=O)N[C@H](CC(C)C)C(=O)N2CCC[C@@H]2C(=O)O[C@@H]1C

A selection of 2 entries from above:

structure (SMILES),PAMPA (10^-6 cm/s)
CC(=O)N1CCC[C@@H]1C(=O)N(C)[C@H](CC(C)C)C(=O)N[C@@H]1C(=O)N[C@H](CC(C)C)C(=O)N[C@@H](CC(C)C)C(=O)N(C)[C@H](CC(C)C)C(=O)N[C@H](C)C(=O)N[C@H](CC(C)C)C(=O)N2CCC[C@H]2C(=O)O[C@@H]1C,0.98
CC(=O)N1CCC[C@@H]1C(=O)N(C)[C@H](CC(C)C)C(=O)N[C@@H]1C(=O)N(C)[C@@H](CC(C)C)C(=O)N(C)[C@H](CC(C)C)C(=O)N(C)[C@@H](CC(C)C)C(=O)N(C)[C@H](C)C(=O)N[C@H](CC(C)C)C(=O)N2CCC[C@H]2C(=O)O[C@@H]1C,3.2